The source of these data is PubChem BioAssay AID1424 (The Scripps Research Institute Molecular Screening Center, 2008).

The entries are a selection whose mix differs from that of the whole data set. Active and inactive are the calls of the source.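 The calls were made as follows: active = activation above its plate's cutoff, the mean activation of test wells on that plate plus 3 SD (cut at about 19% in these data); inactive = the rest.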

The assay has as its system transient receptor potential cation channel N1 (TRPN1/NompC), Danio rerio. Briefly: TRPN1 activation via calcium influx – cell-based, HEK293, calcium fluorescence, zebrafish, primary screen (AID 1424).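 Also: 0% = DMSO alone and 100% = 87 µM carbachol.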 As to conditions: HEK293 zebrafish TRPN1-YFP, Fluo-8 calcium fluorescence; at 3 µM; hits give high values; 100% = response to 87 µM carbachol. The gist of the method:
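Assay system: Zebrafish TRPN1-YFP in HEK293 cells | Incubation: Dye loading 1 h at 37 °C, then 30 min room temperature | Measured by: Kinetic Fluo-8 fluorescence, ex 470-495, em 515-575 nm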
With `COc1ccc(OP(C)(=O)Nc2cccc(F)c2)cc1` (stereo unspecified), the activation was inactive: -0.08%. Then `COc1ccccc1OP(C)(=O)Nc1cc(Cl)ccc1C` (stereo unspecified), with inactive: -0.4%; and `Cc1cc(C)cc(OP(C)(N)=O)c1` (stereo unspecified), with inactive: -0.6%. The value for `CCOC(=O)c1ccc(NP(C)(=O)Oc2ccccc2)cc1` (stereo unspecified) was inactive: 0.43%; that for `Cc1ccc(NP(C)(=O)Oc2ccccc2)c(C)c1` (stereo unspecified) was inactive: 0.09%. Then `COc1ccccc1OP(C)(=O)Nc1ccc(C)cc1` (stereo unspecified), with inactive: 0.75%. Turning to `Cc1cccc(C)c1OP(C)(N)=O` (stereo unspecified), the activation is inactive: 0.94%.

As to `CC(C)(C)c1ccc(OP(C)(=O)Nc2ccc(SC(F)(F)F)cc2)cc1` (stereo unspecified), the activation was inactive: -0.25%. The value for `O=[N+]([O-])c1ccc2c(c1)C=Nc1ccccc1O2` was inactive: -1.04%. Then `CCN(CC)CCCOC(=O)C(O)(c1ccccc1)c1ccccc1`, with inactive: 0.59%; and `CP(=O)(Nc1ccccn1)Oc1ccc(Cl)cc1` (stereo unspecified), with inactive: -0.05%. With `CCOP(C)(=S)SCC(=O)NC(C)C(=O)O` (stereo unspecified), the activation is inactive: 1.21%. Consider `CCOC(=O)c1ccc(NP(C)(=O)Oc2ccc(OC)cc2)cc1` (stereo unspecified), for which the activation is inactive: 0.33%. In the case of `Cc1cc(C)cc(OP(C)(=O)Nc2ccc(SC(F)(F)F)cc2)c1` (stereo unspecified), the activation is inactive: 0.15%. For `CCc1ccc(OP(C)(=O)N2CCN(c3ccc([N+](=O)[O-])cc3)CC2)cc1` (stereo unspecified), the activation is inactive: 4.26%.

On to `CP(=O)(NC(=O)Nc1ccccc1)Oc1ccccc1` (stereo unspecified), for which the activation is inactive: 1.34%. The value for `CP(=O)(Oc1ccccc1)OC(c1ccccc1)C(F)(F)F` (stereo unspecified) was inactive: -1.03%; that for `CP(=O)(Nc1ccc(SC(F)(F)F)cc1)Oc1ccc(Cl)cc1` (stereo unspecified) was inactive: 0.96%. Regarding `Cc1cccc(C)c1OP(C)(=O)Nc1ccc(SC(F)(F)F)cc1` (stereo unspecified), the activation was inactive: 0.21%. With `COc1ccccc1OP(C)(=O)Nc1ccccc1` (stereo unspecified), the activation was inactive: -1.85%. Consider `CP(=O)(Nc1ccccc1Br)Oc1ccccc1` (stereo unspecified), for which the activation was inactive: -0.2%. Then `CP(=S)(Nn1cnnc1)Oc1ccccc1` (stereo unspecified), with inactive: 0.38%. Take `CP(=O)(Nc1ccc(SC(F)(F)F)cc1)Oc1ccccc1` (stereo unspecified): the activation was inactive: 2.24%. Consider `CCCOc1ccc(NP(C)(=O)Oc2ccc(Cl)cc2)cc1` (stereo unspecified), for which the activation is inactive: -3.11%.

In the case of `CN1CCCCC1COC(=O)C1(O)c2ccccc2CCc2ccccc21` (stereo unspecified), the activation was inactive: 0.26%. The value for `COc1ccccc1OP(C)(=O)Nc1c(C)cccc1C` (stereo unspecified) was inactive: 1.27%. Then `CCOC(=O)C(CC)C1=NC(C)(C)Cc2ccccc21.O=[N+]([O-])c1cc([N+](=O)[O-])c(O)c([N+](=O)[O-])c1` (stereo unspecified), with inactive: -1.57%; and `O=[N+]([O-])c1cc([N+](=O)[O-])c(Nc2nnnn2CCO)c([N+](=O)[O-])c1`, with inactive: -0.1%. The value for `Cc1nc2ccc3ccccc3c2s1.O=[N+]([O-])c1cc([N+](=O)[O-])c(O)c([N+](=O)[O-])c1` was inactive: -0.65%. Regarding `O=[N+]([O-])c1cc([N+](=O)[O-])c(-n2nnc3ccccc32)c([N+](=O)[O-])c1`, the activation was inactive: 1.04%. Consider `CP(=O)(Nc1cccc(Br)c1)Oc1ccccc1` (stereo unspecified), for which the activation was inactive: -0.5%. The value for `Cc1cc(C)cc(OP(C)(=O)Nc2ccccn2)c1` (stereo unspecified) was inactive: -1.25%; that for `Cc1ccc(C)c(NP(C)(=O)Oc2ccccc2)c1` (stereo unspecified) was inactive: -0.16%; that for `Cc1cc(C)cc(OP(C)(=O)Nc2ccc(C)cc2C)c1` (stereo unspecified) was inactive: -0.96%. Then `CCOC(=O)c1ccc(NP(C)(=O)Oc2cc(C)cc(C)c2)cc1` (stereo unspecified), with inactive: -0.12%; and `COc1ccccc1OP(C)(=O)Nc1cccc(Br)c1` (stereo unspecified), with inactive: 0.27%. For `CC1=NCCc2c1[nH]c1ccccc21.O=[N+]([O-])c1cc([N+](=O)[O-])c(O)c([N+](=O)[O-])c1`, the activation was inactive: -0.14%. Consider `O=C(O)c1cccc(Nc2c([N+](=O)[O-])cc([N+](=O)[O-])cc2[N+](=O)[O-])c1`, for which the activation was inactive: -0.51%.

For `CCCCCOc1ccc(NP(C)(=O)Oc2ccc(Cl)cc2Cl)cc1` (stereo unspecified), the activation is inactive: -0.56%. The value for `CP(=O)(Nc1ccccc1)Oc1ccc(F)cc1` (stereo unspecified) was inactive: -0.99%; that for `CCN(CC)CCCOC(=O)C(O)(c1ccccc1)C1CCCCC1` (stereo unspecified) was inactive: 1.25%; that for `COc1ccc(OP(C)(=O)Nc2ccc(SC(F)(F)F)cc2)cc1` (stereo unspecified) was inactive: 1.01%. As to `CCOC(=O)c1ccc(NP(C)(=O)Oc2ccc(F)cc2)cc1` (stereo unspecified), the activation was inactive: -0.71%. Then `O=C(OCCN1CCN(CCOCc2ccccc2)CC1)C(O)(c1ccccc1)c1ccccc1`, with inactive: 0.59%. Then `O=C(OC1CN2CCC1CC2)c1ccc([N+](=O)[O-])cc1` (stereo unspecified), with inactive: 1.94%; and `CC(C)c1ccc(OP(C)(=O)Nc2ccc(SC(F)(F)F)cc2)cc1` (stereo unspecified), with inactive: 0.64%; and `CP(=O)(Nc1ccccc1F)Oc1ccccc1` (stereo unspecified), with inactive: 1.43%. As for `Cc1ccccc1NP(C)(=O)Nc1ccccc1C`, the activation is inactive: -0.75%. Then `CP(=O)(Nc1ccc2c(c1)OCCO2)Oc1ccccc1` (stereo unspecified), with inactive: 0.54%.

Regarding `CCOP(C)(=S)SCC(=O)NC(C)(CC)C(=O)O` (stereo unspecified), the activation is inactive: 0.09%. The value for `CP(=O)(Nc1ccc(SC(F)(F)F)cc1)Oc1ccc(F)cc1` (stereo unspecified) was inactive: 0.64%; that for `Cc1cc(-c2cccc3ccccc23)c(C)cn1.O=[N+]([O-])c1cc([N+](=O)[O-])c(O)c([N+](=O)[O-])c1` was inactive: -5.59%. Take `O=[N+]([O-])c1cc([N+](=O)[O-])c(NCC2CCS(=O)(=O)C2)c([N+](=O)[O-])c1` (stereo unspecified): the activation is inactive: 1.51%.

For `O=[N+]([O-])c1ccc(OP2(=O)COCCO2)cc1` (stereo unspecified), the activation was inactive: 1.01%. Then `COc1ccc(NP(C)(=O)Oc2ccccc2OC)cc1` (stereo unspecified), with inactive: -0.39%; and `CN(C)CCOC(=O)C(O)(c1ccccc1)C1CCCCC1` (stereo unspecified), with inactive: 0.03%.

As for `COc1ccc(OP(C)(=O)Nc2cccc(Br)c2)cc1` (stereo unspecified), the activation was inactive: -3.02%. The value for `CP(=O)(OC12CC3CC(CC(C3)C1)C2)OC12CC3CC(CC(C3)C1)C2` was inactive: -0.99%; that for `CCOC(=O)c1ccc(NP(C)(=O)Oc2ccc(Cl)cc2)cc1` (stereo unspecified) was inactive: -0.12%. `CN(C)C(=O)c1c([N+](=O)[O-])cc([N+](=O)[O-])cc1[N+](=O)[O-]`: the activation was inactive: 0.58%.

In the case of `CP(=O)(Nc1ccc(Cl)cc1)Oc1ccc(F)cc1` (stereo unspecified), the activation was inactive: -0.32%.
